AlphaSeq binding of Ab-14 light chain variants to a spike HR2 peptide

Values reported by Li et al. 2023, doi:10.1038/s41467-023-39022-2 (FLAb copy).

Target: peptide PDVDLGDISGINAS, taken from heptad repeat 2 (HR2) of SARS-CoV-2 spike.

The variants keep the heavy chain, the linker and the frameworks of Ab-14 (scFv order VH, a (GGGGS)3 linker, VL).
VH: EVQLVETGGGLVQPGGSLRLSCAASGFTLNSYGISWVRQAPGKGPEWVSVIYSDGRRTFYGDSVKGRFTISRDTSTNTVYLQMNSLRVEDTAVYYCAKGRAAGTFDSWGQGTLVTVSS
VL: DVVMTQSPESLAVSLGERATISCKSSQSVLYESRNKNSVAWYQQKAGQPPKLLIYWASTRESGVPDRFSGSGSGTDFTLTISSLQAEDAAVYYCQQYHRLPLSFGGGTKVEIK

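Phage display of a naive human antibody library on the peptide gave the parent. This is the validation round: designs drawn from the data on random variants, tested in the same kind of assay. Their group label is 14L_GP_Gibbs (GP: Gaussian process model; Gibbs: Gibbs sampling; a sequence that several methods proposed may carry one label only). AlphaSeq pools MATa yeast showing the antibodies with MATalpha yeast showing the peptide. Mating (16 h, 30 °C) was followed by selection of diploids and sequencing of their barcodes. Each replicate has its own calibration line, from reference interactions of the BCL2 family. The assay was run in six technical replicates.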

Variants are written as CDR1, CDR2 and CDR3 of the light chain (limits as in the source). Parent: KSSQSVLYESRNKNSVA, WASTRES, QQYHRLPLS.
Values are log10 of the apparent Kd in nM; lower means stronger binding.
A sequence measured in both rounds can read differently, since the two assays cover different ranges.

CDR-L1 | CDR-L2 | CDR-L3 | log10 Kd (nM) by replicate | control signals
KLYQSQLYESRNKNSVA | QASQREM | QQYHRLPLS | 0.40 0.18 0.32 0.61 0.28 0.52 | 0 of 18
KLMGSELGESRNKNSVA | SADTRES | QQYHRLPLS | 0.77 0.62 0.68 0.97 0.95 0.96 | 3 of 18 (2.44)
KQSQSWLYESRNKNSIA | NANQREQ | QQYHRLPLS | -0.11 -0.08 -0.06 -0.41 -0.42 0.21 | 1 of 18 (1.78)
KLDQSVLGGSRNKNSVA | HANQRES | QQYHRLPLY | 1.44 2.13 2.53 1.66 2.41 1.73 | 1 of 18 (2.37)
KYSQLVPEESRNKNSVA | NASTREE | QQYHRLPLS | 0.17 0.10 0.06 -0.11 0.05 0.08 | 2 of 18 (2.27)
KLSQSNLYEDRNANNVA | NASQRES | QVYHRLPLS | 0.48 0.11 0.31 0.09 0.13 0.27 | 0 of 18
KVSQSMWYESRMKNSVA | NASYREQ | QQYHRLPLQ | 0.22 0.20 -0.02 -0.11 -0.17 0.05 | 0 of 18
KSSQGFLYENRNKNSVA | SASQRES | QQYHRLPLS | 0.61 0.38 0.56 0.44 0.42 0.72 | 2 of 18 (2.55)
KLQWSVLLQSRNKNSVA | QASTRMM | QQYHRLPLS | 0.32 0.39 0.30 0.30 0.68 0.52 | 0 of 18
KLSPSFLYESRNKNSVA | DASTRLE | QQYHRLPLS | -0.27 0.04 -0.28 -0.53 -0.36 -0.24 | 0 of 18
KLQQSNWYESRNKNSVA | DASVRES | QQYHRLPLS | 0.15 -0.14 -0.33 -0.49 -0.15 -0.18 | 1 of 18 (2.27)
KFMQSMGYESRNKNSVA | EASTRSS | QQYHRLPLS | 0.53 0.21 0.56 0.74 -0.15 0.18 | 0 of 18
KFSQSTLYESRNKNSVA | NAQTRLW | QQYHRLPLS | 0.62 0.71 -0.06 0.83 0.30 0.37 | 1 of 18 (2.30)
KMQASNGYESRNKNAVA | QASTRES | QQYHRLPLS | 0.25 0.05 0.40 0.21 0.34 0.34 | 2 of 18 (2.36)
KFSMSEDYESRNKNSVA | NAQTRMS | QQYHRLPLS | -0.38 -0.45 -0.65 -0.62 -0.71 -0.39 | 1 of 18 (3.18)
KISCSEYYGDRNKMSVA | DASQRLS | QQYHRLPLS | -0.32 -0.22 -0.53 -0.33 -0.48 -0.10 | 2 of 18 (3.08)
KQQQSDGGMQRNKNSVA | EASTREM | QQYHRLPLS | 0.07 -0.27 -0.37 -0.28 -0.51 -0.14 | 1 of 18 (1.67)
KLSMQDEYQSRNKNQVA | NASTRYS | QQYHRLPLS | -0.17 -0.25 -0.32 -0.44 -0.39 -0.11 | 1 of 18 (2.49)
KLMEQALYESRNKNSVA | QASTRED | QQYHRLPLS | 0.12 0.05 0.07 -0.02 0.02 0.28 | 0 of 18
KLEQSTLYESRNANSVA | NASTRMS | QQYKRLPLS | 0.26 0.14 0.08 0.26 0.37 0.08 | 1 of 18 (1.99)
KLVMSWGYESRNKNAVA | HASQRCS | QQYHRLPLS | 1.25 1.10 1.62 0.94 1.29 0.82 | 0 of 18
KLSQSVLYESRQKNSVA | NASTRMQ | QQYHRLPLL | -0.25 -0.30 -0.17 -0.28 -0.23 -0.22 | 0 of 18
KQSFMVMEGSRNKNSVA | EASLREW | QQYHRLPLS | 1.05 0.67 0.56 0.74 0.95 0.69 | 1 of 18 (2.42)
KMSQSVEQLDRNWNNVA | YASQREM | QQYHRLPLS | 0.75 0.22 -0.13 -0.04 0.47 0.31 | 1 of 18 (3.64)
KLSPSVEYESRLKNSVA | NASTRLE | QQYHRLPLS | 0.56 0.41 0.38 0.29 0.31 0.51 | 1 of 18 (4.65)
KLSQGWLYESRNKNNVA | NASWREQ | QQYHRLPLS | -0.04 -0.12 -0.22 -0.37 -0.04 -0.15 | 1 of 18 (2.70)
KLSQSTLYEQRQCNSVA | NASQRES | QQYHRLPLS | 0.09 -0.02 -0.07 -0.44 -0.10 0.09 | 0 of 18
KVSGLGLYGQRNKNSVA | EASYRED | QQYHRLPLS | -0.15 -0.20 -0.32 -0.42 -0.37 -0.10 | 1 of 18 (2.92)
KLQQSVLYESRNKNSVA | QASTRSD | QCYHRLPLS | 0.73 0.44 0.60 0.70 0.69 0.55 | 0 of 18
KLQQSELYESRNQNSVA | GASTRLE | QQYHRLPLS | 0.37 0.53 0.33 0.30 0.53 0.41 | 0 of 18
FSSQSWLMEGRNDNSVA | SASTRED | QQYHRLPLS | -0.14 -0.19 -0.17 -0.36 -0.37 -0.01 | 3 of 18 (2.85)
KLSGSMLYESRNKNNVA | EAHQRES | QMYHRLPLS | 0.98 0.75 0.52 0.62 0.50 0.88 | 2 of 18 (2.52)
ILQQSMLYESRMKNSVA | NASQRWM | QQYHRLPLS | 0.55 0.39 0.27 0.21 0.30 0.36 | 0 of 18
KLSQSVEQEERNKNSVA | HASVRLV | QQYHRLPLS | 0.57 0.31 -0.06 0.44 -0.36 0.27 | 1 of 18 (1.28)
KLSQKWLYESRNKNNVA | NASCREQ | QQYHRLPLS | 0.00 -0.21 -0.45 -0.13 -0.29 -0.22 | 2 of 18 (2.70)
KLSQSGLYGMRNKMSVA | NASQRES | QQYHRLPLS | 0.30 0.28 0.34 0.04 0.49 0.72 | 3 of 18 (2.50)
KLDQSGLYGSRNKNSVA | HASYRES | QQYHRLPLY | 0.46 0.99 0.88 0.69 0.99 0.99 | 0 of 18
KLEQLYDYGSRNKNSVA | QASTRES | QQYHRLPLS | 0.14 -0.22 -0.18 -0.39 -0.06 -0.11 | 1 of 18 (2.88)
KIQQSVWMESRNVNNVA | NASTRED | QQYHRLPLS | 0.02 -0.13 -0.13 -0.33 -0.10 -0.18 | 2 of 18 (2.13)
KLSQDYCYGDRNKNSVA | NASTREQ | QQYHRLPLS | 0.79 0.90 0.73 0.77 0.83 1.09 | 1 of 18 (2.58)
KLSQQGLYGSRNANSVA | NADTREQ | QQYHRLPLS | -0.07 -0.16 -0.46 -0.39 -0.61 -0.08 | 2 of 18 (2.97)
KHEEGVWYESRNKNSVA | EGSTRES | QQYHRLPLS | 0.08 0.18 0.48 0.01 -0.09 0.08 | 0 of 18
KLEQSVMLESRNVNAVA | SASRREL | QQYHRLPLS | 0.16 0.04 -0.12 -0.29 -0.18 0.05 | 1 of 18 (3.07)
KVSQSMLGEERNKNSVA | SASTREN | QQYHRLPLS | 0.67 0.40 0.62 0.41 0.49 0.77 | 0 of 18

Extract of 7 entries:

CDR-L1 | CDR-L2 | CDR-L3 | log10 Kd (nM) by replicate | control signals
KLSQSVLYESRQKNSVA | NASTRMQ | QQYHRLPLL | -0.25 -0.30 -0.17 -0.28 -0.23 -0.22 | 0 of 18
KVSQSMLGEERNKNSVA | SASTREN | QQYHRLPLS | 0.67 0.40 0.62 0.41 0.49 0.77 | 0 of 18
KLSQDYCYGDRNKNSVA | NASTREQ | QQYHRLPLS | 0.79 0.90 0.73 0.77 0.83 1.09 | 1 of 18 (2.58)
KLEQSVMLESRNVNAVA | SASRREL | QQYHRLPLS | 0.16 0.04 -0.12 -0.29 -0.18 0.05 | 1 of 18 (3.07)
KIQQSVWMESRNVNNVA | NASTRED | QQYHRLPLS | 0.02 -0.13 -0.13 -0.33 -0.10 -0.18 | 2 of 18 (2.13)
KFSQSTLYESRNKNSVA | NAQTRLW | QQYHRLPLS | 0.62 0.71 -0.06 0.83 0.30 0.37 | 1 of 18 (2.30)
KMSQSVEQLDRNWNNVA | YASQREM | QQYHRLPLS | 0.75 0.22 -0.13 -0.04 0.47 0.31 | 1 of 18 (3.64)

Background: pairings of all light chain designs with three empty control strains gave a value in 4% of cases (median 2.64, 5th percentile 1.59). Values in that range, when seen in few replicates, are hard to tell from nonspecific mating. For each scFv, signals with the empty controls are counted beside the result, with their mean in brackets.
The authors averaged sequences with at least three values out of six and counted those with two or fewer as poor binders.
The parent sequence was in this pool as ten entries: three were never detected, three once, and four in most replicates, with averages from 0.34 to 2.37.